Laboratory results published in patent US9433687B2, “Anti-Notch3 antibodies and antibody-drug conjugates” (Pfizer Inc., priority 2012, dated 2016).

Sequences of proteins named here, by UniProt entry; tags and fusion partners are left off. Residues count along the entry.
UniProt Q9UM47, 40-2321: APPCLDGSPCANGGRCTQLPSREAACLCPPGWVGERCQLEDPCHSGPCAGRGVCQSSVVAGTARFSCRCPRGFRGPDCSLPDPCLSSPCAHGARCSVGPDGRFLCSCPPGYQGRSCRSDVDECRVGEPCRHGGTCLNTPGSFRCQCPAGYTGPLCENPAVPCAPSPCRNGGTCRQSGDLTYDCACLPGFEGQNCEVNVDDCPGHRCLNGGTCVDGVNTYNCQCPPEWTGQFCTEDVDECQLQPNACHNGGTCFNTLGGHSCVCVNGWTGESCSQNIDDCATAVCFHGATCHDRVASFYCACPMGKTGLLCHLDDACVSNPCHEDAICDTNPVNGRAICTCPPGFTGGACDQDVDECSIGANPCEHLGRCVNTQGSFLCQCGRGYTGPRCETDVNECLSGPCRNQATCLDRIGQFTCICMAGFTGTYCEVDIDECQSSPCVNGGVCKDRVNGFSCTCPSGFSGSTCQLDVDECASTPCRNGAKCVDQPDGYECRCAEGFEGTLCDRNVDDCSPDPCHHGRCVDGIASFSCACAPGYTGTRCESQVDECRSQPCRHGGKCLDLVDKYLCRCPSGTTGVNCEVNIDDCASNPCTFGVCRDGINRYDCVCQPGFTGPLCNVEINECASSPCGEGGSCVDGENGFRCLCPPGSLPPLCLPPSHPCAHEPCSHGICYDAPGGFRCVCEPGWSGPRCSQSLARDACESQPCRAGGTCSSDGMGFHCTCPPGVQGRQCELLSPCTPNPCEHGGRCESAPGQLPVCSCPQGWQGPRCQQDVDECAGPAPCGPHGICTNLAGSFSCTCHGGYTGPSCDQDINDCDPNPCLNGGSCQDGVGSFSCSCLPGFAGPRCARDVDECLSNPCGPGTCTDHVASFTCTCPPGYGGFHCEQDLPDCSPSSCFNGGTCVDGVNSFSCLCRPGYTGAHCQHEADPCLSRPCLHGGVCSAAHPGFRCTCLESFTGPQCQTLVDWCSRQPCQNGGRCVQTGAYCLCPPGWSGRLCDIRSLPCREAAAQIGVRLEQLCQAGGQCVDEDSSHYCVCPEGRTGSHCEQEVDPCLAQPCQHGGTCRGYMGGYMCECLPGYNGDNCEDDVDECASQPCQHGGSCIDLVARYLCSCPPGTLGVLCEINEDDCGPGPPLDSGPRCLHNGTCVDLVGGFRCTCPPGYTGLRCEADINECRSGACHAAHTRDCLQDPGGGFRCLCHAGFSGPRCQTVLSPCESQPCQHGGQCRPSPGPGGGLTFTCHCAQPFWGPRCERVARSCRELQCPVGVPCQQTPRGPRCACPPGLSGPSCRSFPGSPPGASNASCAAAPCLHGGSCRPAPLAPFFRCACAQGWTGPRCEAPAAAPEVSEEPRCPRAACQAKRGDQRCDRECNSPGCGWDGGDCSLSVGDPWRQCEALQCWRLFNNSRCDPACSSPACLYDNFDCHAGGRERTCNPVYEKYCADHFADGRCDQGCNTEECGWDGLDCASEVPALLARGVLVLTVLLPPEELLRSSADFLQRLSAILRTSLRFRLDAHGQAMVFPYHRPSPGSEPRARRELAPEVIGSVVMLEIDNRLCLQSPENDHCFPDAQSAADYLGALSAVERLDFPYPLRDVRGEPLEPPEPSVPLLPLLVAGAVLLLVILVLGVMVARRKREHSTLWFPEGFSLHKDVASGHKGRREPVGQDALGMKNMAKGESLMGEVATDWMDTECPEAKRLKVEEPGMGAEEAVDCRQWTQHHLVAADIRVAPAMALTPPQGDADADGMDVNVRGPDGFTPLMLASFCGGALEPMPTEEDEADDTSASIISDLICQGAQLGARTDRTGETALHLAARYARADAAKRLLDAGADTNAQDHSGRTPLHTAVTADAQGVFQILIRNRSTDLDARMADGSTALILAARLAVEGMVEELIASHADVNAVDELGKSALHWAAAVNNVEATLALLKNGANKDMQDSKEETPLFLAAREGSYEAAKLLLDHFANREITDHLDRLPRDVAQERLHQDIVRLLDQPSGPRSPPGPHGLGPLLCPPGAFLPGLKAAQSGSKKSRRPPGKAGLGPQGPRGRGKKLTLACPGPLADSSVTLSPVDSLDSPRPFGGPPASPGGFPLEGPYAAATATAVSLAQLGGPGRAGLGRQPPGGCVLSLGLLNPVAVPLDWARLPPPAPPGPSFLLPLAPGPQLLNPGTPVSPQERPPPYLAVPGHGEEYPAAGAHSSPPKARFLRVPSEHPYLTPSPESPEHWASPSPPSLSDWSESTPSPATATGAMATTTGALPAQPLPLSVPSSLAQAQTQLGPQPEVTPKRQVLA

Assays:
HCC2429 = target: T1, HCC2429 (Homo sapiens, UniProt Q9UM47); assay: Cytotoxicity (MTS) after control or Notch3 siRNA, HCC2429; format: cell-based; settings: Control siRNA; 96 hours; LP = lacked potency
T1 construct: endogenous Notch3 expressing cell lines, HCC2429 and MDA-MB-468; endogenous in cells; host or cells: HCC2429
Protocol: (§1) Notch3 knockdown with siRNAs was used to confirm that the in vitro cytotoxicity of anti-Notch3 ADCs was dependent on the expression of the Notch3 protein. siRNA transfections were generated using ON-TARGET plus SMART pool human Notch3 (L-011093-00), ON-TARGET plus Control Non-Targeting pool (D-001810-10) (Thermo Scientific Dharmacon) and Lipofectamine RNAiMAX Reagent (Invitrogen). Two to 2.5×10^6 cells of HCC2429, OVCAR3 and MDA-MB-468/hNotch3 cells were plated in 10 cm dishes in growth medium without antibiotics the day before transfection. The next day fresh medium without antibiotics was added. The siRNAs and the Lipofectamine RNAiMAX were diluted in OPTI-MEM media and used as per the manufacturer's specifications. Each of the cell lines was transfected with control and Notch3 siRNAs. The cells were incubated with the transfection mixture for 24 hours in a humidified, 37° C., 5% CO2 incubator. After 24 hours, cells were trypsinized and plated for assessment using MTS cellular viability indicator (Promega, Madison, Wis.).
Depending on the cell line, cells were then seeded at a density of 2,500 to 5,000 cells per well 24 hours before treatment. Cells were treated with 3-fold serially diluted humanized anti-Notch3 ADCs in triplicates at 10 concentrations (range 0-30 μg Ab/ml). […] For experiments with 2 individual repeats, average IC50 values were calculated along with standard error of the mean (S.E.M.). Western blot analysis on extracts prepared from control and Notch3 siRNA-treated cells was performed to confirm that Notch3 knockdown occurred for up to 144 hours (data not shown). Cell lines that expressed Notch3 (herein termed control siRNA) or had reduced Notch3 expression after siRNA knockdown (herein termed Notch3 siRNA) were cultured with increasing concentrations of humanized anti Notch3 ADCs. […] After four days, viability of each culture was assessed. IC50 values were calculated by logistic non-linear regression, model #203 with XL fit v4.2 (IDBS, Guildford, Surry, UK) and presented as ng Ab/mL. […]

[1] = test system: MDA-MB-468 breast xenografts; assay: MDA-MB-468 breast xenograft model; format: in vivo, mouse
Protocol: Similar in vivo experiments were performed with the MDA-MB-468 breast cancer cell line as described above. MDA-MB-468 cells are classified as a triple-negative breast cancer (TNBC) basal-like subtype since they lack expression of the estrogen receptor, progesterone receptor and human epidermal growth factor receptor 2 (HER2) (Lehmann, B D, et al, J Clin Invest. 2011; 121(7):2750-2767). To generate xenografts, female SCID Hairless Outbred (SHO) mice were orthotopically implanted with 10×10^6 MDA-MB-468 cells containing 50% Matrigel (BD Biosciences) in the mammary fat pad. […] FIGS. 13A and 13B show graphs of the data from Table 23 of anti-Notch3 ADCs with vc0101 linker-payloads compared to control huNeg-8.8 ADCs and PBS vehicle. FIGS. 14A and 14B show graphs of the data from Table 24 of the anti-Notch3 ADCs with vc6780 linker-payloads compared to control huNeg-8.8 ADC and PBS vehicle.
The MDA-MB-468 breast cancer model was also dosed intravenously Q4d×4 with PBS vehicle, rat-human chimeric anti-Notch3 ADCs and control huNeg-8.8 ADCs, at a dose of 5 mg/kg as provided in FIGS. 16B and 16C.

OVCAR3 = target: T2, OVCAR3 (Homo sapiens, UniProt Q9UM47); assay: Cytotoxicity (MTS) after control or Notch3 siRNA, OVCAR3; format: cell-based; settings: 96 hours
T2 construct: Notch3 endogenously expressing cells MDA-MB-468, HCC2429 and OVCAR3; endogenous in cells; host or cells: OVCAR3
Protocol: as §1
Depending on the cell line, cells were then seeded at a density of 2,500 to 5,000 cells per well 24 hours before treatment. Cells were treated with 3-fold serially diluted humanized anti-Notch3 ADCs in triplicates at 10 concentrations (range 0-30 μg Ab/ml). […] For experiments with 2 individual repeats, average IC50 values were calculated along with standard error of the mean (S.E.M.). Western blot analysis on extracts prepared from control and Notch3 siRNA-treated cells was performed to confirm that Notch3 knockdown occurred for up to 144 hours (data not shown). Cell lines that expressed Notch3 (herein termed control siRNA) or had reduced Notch3 expression after siRNA knockdown (herein termed Notch3 siRNA) were cultured with increasing concentrations of humanized anti Notch3 ADCs. As a specificity control for the anti-Notch3 ADCs, non-targeted control-ADCs (huNeg8.8-ADCs) were also tested on the same cell lines. After four days, viability of each culture was assessed. IC50 values were calculated by logistic non-linear regression, model #203 with XL fit v4.2 (IDBS, Guildford, Surry, UK) and presented as ng Ab/mL. The drug antibody ratio (DAR) is also provided.

B1: hu75-vc6780 (conjugate)
heavy: EVQLVESGGGLVQPGGSLRLSCAASGYAFTDYWMTWVRQAPGKGLEWVAEISPNSGGTNFNEKFKGRFTISVDNAKNSLYLQMNSLRAEDTAVYYCARGEIRYNWFAYWGQGTLVTVSSASTKGPSVFPLAPSSKSTSGGTAALGCLVKDYFPEPVTVSWNSGALTSGVHTFPAVLQSSGLYSLSSVVTVPSSSLGTQTYICNVNHKPSNTKVDKKV[letters of human IgG1 Fc omitted]
light: DIQMTQSPSSLSASVGDRVTITCKASQNVGNNIAWYQQKPGKAPKLLIYYASNRYTGVPSRFSGSGYGTDFTLTISSLQPEDFATYYCQRLYNSPFTFGGGTKVEIKRTVAAPSVFIFPPSDEQLKSGTASVVCLLNNFYPREAKVQWKVDNALQSGNSQESVTEQDSKDSTYSLSSTLTLSKADYEKHKVYACEVTHQGLSSPVTKSFNRGEC
- IC50 (ng Ab/mL) ± S.E.M., HCC2429 Control siRNA (HCC2429): 236 ± 30.5 ng Ab/mL
- tumor volume (mm^3 ± SEM) ([1]; Table 24, 1 mg/kg i.v. Q4d×4, DAY 4): 423 mm^3
- tumor volume (mm^3 ± SEM) ([1]; Table 24, 1 mg/kg i.v. Q4d×4, DAY 7): 434 mm^3
- tumor volume (mm^3 ± SEM) ([1]; Table 24, 1 mg/kg i.v. Q4d×4, DAY 11): 471 mm^3
- tumor volume (mm^3 ± SEM) ([1]; Table 24, 1 mg/kg i.v. Q4d×4, DAY 14): 470 mm^3
- tumor volume (mm^3 ± SEM) ([1]; Table 24, 1 mg/kg i.v. Q4d×4, DAY 19): 536 mm^3
- tumor volume (mm^3 ± SEM) ([1]; Table 24, 1 mg/kg i.v. Q4d×4, DAY 22): 552 mm^3
- tumor volume (mm^3 ± SEM) ([1]; Table 24, 1 mg/kg i.v. Q4d×4, DAY 25): 597 mm^3
- tumor volume (mm^3 ± SEM) ([1]; Table 24, 1 mg/kg i.v. Q4d×4, DAY 28): 660 mm^3
- tumor volume (mm^3 ± SEM) ([1]; Table 24, 1 mg/kg i.v. Q4d×4, DAY 32): 634 mm^3
- tumor volume (mm^3 ± SEM) ([1]; Table 24, 1 mg/kg i.v. Q4d×4, DAY 35): 742 mm^3
- tumor volume (mm^3 ± SEM) ([1]; Table 24, 1 mg/kg i.v. Q4d×4, DAY 40): 794 mm^3
- tumor volume (mm^3 ± SEM) ([1]; Table 24, 1 mg/kg i.v. Q4d×4, DAY 43): 832 mm^3
- tumor volume (mm^3 ± SEM) ([1]; Table 24, 1 mg/kg i.v. Q4d×4, DAY 46): 868 mm^3
- tumor volume (mm^3 ± SEM) ([1]; Table 24, 3 mg/kg i.v. Q4d×4, DAY 4): 406 mm^3
- tumor volume (mm^3 ± SEM) ([1]; Table 24, 3 mg/kg i.v. Q4d×4, DAY 7): 378 mm^3
- tumor volume (mm^3 ± SEM) ([1]; Table 24, 3 mg/kg i.v. Q4d×4, DAY 11): 403 mm^3
- tumor volume (mm^3 ± SEM) ([1]; Table 24, 3 mg/kg i.v. Q4d×4, DAY 14): 370 mm^3
- tumor volume (mm^3 ± SEM) ([1]; Table 24, 3 mg/kg i.v. Q4d×4, DAY 19): 339 mm^3
- tumor volume (mm^3 ± SEM) ([1]; Table 24, 3 mg/kg i.v. Q4d×4, DAY 22): 360 mm^3
- tumor volume (mm^3 ± SEM) ([1]; Table 24, 3 mg/kg i.v. Q4d×4, DAY 25): 381 mm^3
- tumor volume (mm^3 ± SEM) ([1]; Table 24, 3 mg/kg i.v. Q4d×4, DAY 28): 443 mm^3
- tumor volume (mm^3 ± SEM) ([1]; Table 24, 3 mg/kg i.v. Q4d×4, DAY 32): 437 mm^3
- tumor volume (mm^3 ± SEM) ([1]; Table 24, 3 mg/kg i.v. Q4d×4, DAY 35): 495 mm^3
- tumor volume (mm^3 ± SEM) ([1]; Table 24, 3 mg/kg i.v. Q4d×4, DAY 40): 535 mm^3
- tumor volume (mm^3 ± SEM) ([1]; Table 24, 3 mg/kg i.v. Q4d×4, DAY 43): 619 mm^3
- tumor volume (mm^3 ± SEM) ([1]; Table 24, 3 mg/kg i.v. Q4d×4, DAY 46): 636 mm^3
- tumor volume (mm^3 ± SEM) ([1]; Table 24, 10 mg/kg i.v. Q4d×4, DAY 4): 418 mm^3
- tumor volume (mm^3 ± SEM) ([1]; Table 24, 10 mg/kg i.v. Q4d×4, DAY 7): 370 mm^3
- tumor volume (mm^3 ± SEM) ([1]; Table 24, 10 mg/kg i.v. Q4d×4, DAY 11): 302 mm^3
- tumor volume (mm^3 ± SEM) ([1]; Table 24, 10 mg/kg i.v. Q4d×4, DAY 14): 228 mm^3
- tumor volume (mm^3 ± SEM) ([1]; Table 24, 10 mg/kg i.v. Q4d×4, DAY 19): 112 mm^3
- tumor volume (mm^3 ± SEM) ([1]; Table 24, 10 mg/kg i.v. Q4d×4, DAY 22): 52 mm^3
- tumor volume (mm^3 ± SEM) ([1]; Table 24, 10 mg/kg i.v. Q4d×4, DAY 25): 63 mm^3
- tumor volume (mm^3 ± SEM) ([1]; Table 24, 10 mg/kg i.v. Q4d×4, DAY 28): 64 mm^3
- tumor volume (mm^3 ± SEM) ([1]; Table 24, 10 mg/kg i.v. Q4d×4, DAY 32): 71 mm^3
- tumor volume (mm^3 ± SEM) ([1]; Table 24, 10 mg/kg i.v. Q4d×4, DAY 35): 85 mm^3
- tumor volume (mm^3 ± SEM) ([1]; Table 24, 10 mg/kg i.v. Q4d×4, DAY 40): 125 mm^3
- tumor volume (mm^3 ± SEM) ([1]; Table 24, 10 mg/kg i.v. Q4d×4, DAY 43): 134 mm^3
- tumor volume (mm^3 ± SEM) ([1]; Table 24, 10 mg/kg i.v. Q4d×4, DAY 46): 143 mm^3
- tumor volume (mm^3 ± SEM) ([1]; Table 24, 10 mg/kg i.v. Q4d×4, DAY 49): 159 mm^3
- IC50 (ng Ab/mL) ± S.E.M., OVCAR3 Control siRNA (OVCAR3; Control siRNA): 690 ± 137 ng Ab/mL
- IC50 (ng Ab/mL) ± S.E.M., OVCAR3 Notch3 siRNA (OVCAR3; Notch3 siRNA knockdown): 7300 ± 147 ng Ab/mL
